# Laboratory results reported in PubChem BioAssay AID540263 (National Center for Advancing Translational Sciences (NCATS), 2011).
# The chains behind the UniProt entries cited, without tags or fusion partners.
# UniProt Q14974, whole entry: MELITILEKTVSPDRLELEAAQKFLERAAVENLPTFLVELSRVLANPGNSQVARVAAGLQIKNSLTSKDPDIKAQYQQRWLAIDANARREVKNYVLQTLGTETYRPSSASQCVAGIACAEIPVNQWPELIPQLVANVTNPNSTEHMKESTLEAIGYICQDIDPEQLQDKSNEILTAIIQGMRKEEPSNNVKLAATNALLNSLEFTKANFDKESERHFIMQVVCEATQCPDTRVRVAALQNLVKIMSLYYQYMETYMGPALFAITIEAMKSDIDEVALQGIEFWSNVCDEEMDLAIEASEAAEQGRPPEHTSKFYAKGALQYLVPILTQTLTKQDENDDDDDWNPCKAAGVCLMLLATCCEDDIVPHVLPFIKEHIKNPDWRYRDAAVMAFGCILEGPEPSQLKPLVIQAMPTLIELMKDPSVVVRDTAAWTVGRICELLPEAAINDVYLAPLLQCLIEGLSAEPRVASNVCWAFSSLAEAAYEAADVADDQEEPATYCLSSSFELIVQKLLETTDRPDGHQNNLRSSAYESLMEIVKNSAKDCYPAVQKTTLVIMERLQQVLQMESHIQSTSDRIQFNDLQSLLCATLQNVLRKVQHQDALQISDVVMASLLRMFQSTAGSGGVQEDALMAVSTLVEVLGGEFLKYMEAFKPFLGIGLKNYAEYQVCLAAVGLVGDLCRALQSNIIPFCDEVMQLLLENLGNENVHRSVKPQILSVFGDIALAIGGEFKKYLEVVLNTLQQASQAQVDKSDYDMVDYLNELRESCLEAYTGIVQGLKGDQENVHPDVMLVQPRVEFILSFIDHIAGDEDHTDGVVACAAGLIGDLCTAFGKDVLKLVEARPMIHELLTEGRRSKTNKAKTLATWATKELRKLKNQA
# UniProt O95149, whole entry partner: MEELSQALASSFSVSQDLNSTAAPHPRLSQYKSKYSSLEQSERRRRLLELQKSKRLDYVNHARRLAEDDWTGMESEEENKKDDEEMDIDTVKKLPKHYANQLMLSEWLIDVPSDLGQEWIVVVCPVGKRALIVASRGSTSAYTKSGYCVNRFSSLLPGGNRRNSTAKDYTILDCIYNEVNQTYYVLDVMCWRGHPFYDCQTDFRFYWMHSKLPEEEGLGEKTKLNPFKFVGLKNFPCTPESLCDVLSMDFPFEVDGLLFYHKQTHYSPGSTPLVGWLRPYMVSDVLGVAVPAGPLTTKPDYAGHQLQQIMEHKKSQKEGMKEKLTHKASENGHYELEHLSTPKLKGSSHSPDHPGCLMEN
# Some of the results follow. Results filed as inconclusive are left out. The source made the active and inactive calls. The call rests on the fitted dose curve.
# Biological target: Importin subunit beta-1 (Homo sapiens) (UniProt Q14974)
# Test: qHTS Assay for Inhibitors of Rango (Ran-regulated importin-beta cargo) - Importin beta complex formation;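 further: 0% = DMSO wells and 100% = buffer wells lacking importin beta; nearly all actives have a fitted effect of over 15% in size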
# Settings: Rango CFP/YFP FRET sensor + importin beta, 45 min; at 92.2 µM (top of the series)
# In short: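 FRET biosensor Rango (snurportin 1 IBB between N-terminal EYFP and C-terminal Cerulean), 50 nM in PBS/1 mM DTT/0.02% Tween-20/0.1% BSA, preincubated 5 min RT with compound; 0.125 microM importin beta added, 45 min RT, CFP/YFP FRET ratio read.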
row,SMILES,inhibition of complex formation
1,CC(=O)NC(SC(=S)N(CC(C)C)CC(C)C)C(Cl)(Cl)Cl (stereo not given),inactive: 3.43%
2,O=C(OC1CN2CCC1CC2)c1ccccc1 (stereo not given),inactive: 4.68%
3,CCC(=O)N1C2C3N(C(=O)CC)C1C1N(C(=O)CC)C(C(N1C(=O)CC)N3C(=O)CC)N2C(=O)CC,inactive: 0.193%
4,CCN(CC)CCCOC(=O)C(O)(c1ccccc1)C1CCCCC1 (stereo not given),inactive: 2.56%
5,CP(=O)(Nc1ccccc1)Oc1ccc(F)cc1 (stereo not given),inactive: 0.117%
6,CC(NC(=O)COC(=O)C(O)(c1ccccc1)c1ccccc1)c1ccccc1 (stereo not given),inactive: 3.42%
7,Cc1ccccc1OP(=O)(Nc1ccccn1)Oc1ccccc1C,inactive: -1.18%
8,O=c1c2cc([N+](=O)[O-])ccc2[nH]c2c([N+](=O)[O-])cc([N+](=O)[O-])cc12,inactive: 4.63%
9,CCCCCOc1ccc(NP(C)(=O)Oc2ccc(Cl)cc2Cl)cc1 (stereo not given),inactive: 1.87%
10,CN(C)C(=O)Oc1noc2ccccc12,inactive: -1.57%
11,O=C(NC1CCS(=O)(=O)C1)NP(=S)(Oc1ccccc1)Oc1ccccc1 (stereo not given),inactive: -4.18%
12,CCNC(=S)/N=C(\N)N[N+](=O)[O-],inactive: -0.351%
13,c1ccc(-c2nn[nH]n2)c(-c2nn[nH]n2)c1,inactive: 4.76%
14,Cc1ccc(NP(=O)(Oc2cccc(C)c2)Oc2cccc(C)c2)nc1,inactive: 0.99%
15,O=P1(N(CCCl)CCCl)OCCC2CCCCN21 (stereo not given),inactive: -2.56%
16,CCOC(=O)c1ccc(NP(C)(=O)Oc2ccc(F)cc2)cc1 (stereo not given),inactive: -1.13%
17,COc1ccc(OP(C)(=O)Nc2ccc(SC(F)(F)F)cc2)cc1 (stereo not given),inactive: 3.49%
18,CC(=O)c1ccc(N2CC2c2ccncc2)cc1 (stereo not given),inactive: 1.55%
19,COC(=O)C1(C)COP(=O)(NCc2ccccc2)OC1 (stereo not given),inactive: -0.0247%
20,O=C(OCCN1CCN(CCOCc2ccccc2)CC1)C(O)(c1ccccc1)c1ccccc1,inactive: 1.09%
21,Cc1ccccc1CN(C)C(=O)COC(=O)C(O)(c1ccccc1)c1ccccc1,inactive: -1.74%
22,C[C@H]1OP(=O)(Oc2ccccc2)C[C@@H]2O[C@@H]21 (stereo not given in full),inactive: -1.99%
23,C[C@@H]1C=CCP(=O)(Oc2ccccc2)O1 (stereo not given in full),inactive: 5.3%
24,CC(=O)Nc1ccc([As](=O)(O)O)c(O)c1,inactive: -0.128%
25,CC(=O)Nc1ccc(Oc2c([N+](=O)[O-])cc([N+](=O)[O-])cc2[N+](=O)[O-])cc1,inactive: -1.08%
26,O=P1(Nc2nc3ccc(Cl)cc3s2)COc2ccccc2O1 (stereo not given),inactive: -1.77%
27,CCOc1ccc(C2=NCC(CBr)S2)cc1 (stereo not given),inactive: 6.41%
28,CCc1cc(O)c([N+](=O)[O-])c(C)c1[N+](=O)[O-],inactive: -0.0066%

row,SMILES,inhibition of complex formation
1,CP(=O)(Nc1ccccc1F)Oc1ccccc1 (stereo not given),inactive: -4.04%
2,CC(C)(C)C(=O)NC(Sc1ccccc1)C(Cl)(Cl)Cl (stereo not given),inactive: 2.37%
3,CC(C)c1ccc(OP(C)(=O)Nc2ccc(SC(F)(F)F)cc2)cc1 (stereo not given),inactive: -1.11%
4,CP(=O)(Nc1ccc2c(c1)OCCO2)Oc1ccccc1 (stereo not given),inactive: 0.0754%
5,Cc1ccccc1NP(C)(=O)Nc1ccccc1C,inactive: 3.75%
6,CP(=O)(Nc1ccc(SC(F)(F)F)cc1)Oc1ccc(F)cc1 (stereo not given),inactive: -1.82%
7,O=P(Nc1nccs1)(c1ccccc1)c1ccccc1,inactive: -0.289%
8,CC(C)C(=O)NC(Sc1ccccc1)C(Cl)(Cl)Cl (stereo not given),inactive: -5.15%
9,CCOP(C)(=S)SCC(=O)NC(C)(CC)C(=O)O (stereo not given),inactive: -1.66%
10,c1nnnn1CCn1cnnn1,inactive: 2.07%
11,O=[N+]([O-])c1ncn(CCn2cnc([N+](=O)[O-])n2)n1,inactive: 2.25%
12,O=[N+]([O-])c1ccc(OP2(=O)COCCO2)cc1 (stereo not given),inactive: 3.71%
13,O=[N+]([O-])c1ccc(O)c(/C=N/Nc2ccc([N+](=O)[O-])cc2[N+](=O)[O-])c1,inactive: 0.371%
14,O=[As](O)(c1ccccc1)c1ccc(O)cc1,inactive: 0.432%
15,Cc1cc(-c2cccc3ccccc23)c(C)cn1.O=[N+]([O-])c1cc([N+](=O)[O-])c(O)c([N+](=O)[O-])c1,inactive: -0.705%
16,Cc1c(C(c2ccc3c(c2)OCO3)c2c(C)n(C)n(-c3ccccc3)c2=O)c(=O)n(-c2ccccc2)n1C.O=[N+]([O-])c1cc([N+](=O)[O-])c(O)c([N+](=O)[O-])c1,inactive: -0.484%
17,C(Cc1nn[nH]n1)Cc1nn[nH]n1,inactive: 3.03%
18,Nc1ccc([As](=O)(O)c2ccc([N+](=O)[O-])cc2)cc1,inactive: 2.01%
19,O=C(OC1CN2CCC1CC2)c1cccc(Cl)c1 (stereo not given),inactive: -1.76%
20,COc1ccc(OP(C)(=O)Nc2cccc(Br)c2)cc1 (stereo not given),inactive: 3.99%
21,COc1ccc(N)c([N+](=O)[O-])c1[N+](=O)[O-],inactive: -5.69%
22,CN(C)C1(CNC(=O)c2ccc(Cl)c(S(N)(=O)=O)c2)CCCCC1,inactive: -1.81%
23,O=P(Nc1ccccn1)(c1ccc(Br)cc1)c1ccc(Br)cc1,inactive: -0.507%
24,O=P(Nc1nc2ccccc2s1)(c1ccccc1)c1ccccc1,inactive: -5.31%
25,CN(C)CCOC(=O)C(O)(c1ccccc1)C1CCCCC1 (stereo not given),inactive: -1.13%
26,C[C@H]1OP(=O)(Oc2ccccc2)[C@H](O)[C@H](O)[C@H]1N=[N+]=[N-] (stereo not given in full),inactive: -0.35%
27,COc1ccc(NP(C)(=O)Oc2ccccc2OC)cc1 (stereo not given),inactive: -1.69%
